Results from ChEMBL document CHEMBL6182847, “Design, synthesis, and biological evaluation of novel aminopyrimidine derivatives as EGFR inhibitors” (Bioorg Med Chem Lett, 2025).

Test: Selectivity ratio of IC50 for inhibition of wild-type EGFR (unknown origin) to IC50 for inhibition of EGFR L858R/T790M/C797S mutant (unknown origin)

Row | Ratio IC50 | Compound
1 | 6.2 | C=CC(=O)Nc1cnn(-c2ccnc(Nc3cc(C)c(N4CCC(N5CCN(C)CC5)CC4)cc3OC)n2)c1
2 | 8.99 | COc1cc(N2CCC(N3CCN(C)CC3)CC2)c(C)cc1Nc1nccc(-n2cc(NC(=O)C3CC3)cn2)n1

Continued, compound first:

Row | Compound | Ratio IC50
3 | COc1cc(N2CCC(N3CCN(C)CC3)CC2)c(C)cc1Nc1ncc(Br)c(-n2ccc(-c3ccccc3NS(=O)(=O)C3CC3)n2)n1 | > 53.3
4 | COc1cc(N2CCC(N3CCN(C)CC3)CC2)c(C)cc1Nc1nccc(-n2cc(NS(=O)(=O)C3CC3)cn2)n1 | 8.43
5 | COc1cc(N2CCC(N3CCN(C)CC3)CC2)c(C)cc1Nc1nccc(-n2cc(NC(=O)C=C(C)C)cn2)n1 | 7.15
